This is a selection; strong and weak results do not stand in their true shares. Inconclusive results are not listed. Calls of active or inactive are those of the source. Calls follow the shape of the dose curve; as a rule, active = well fitted inhibition curve with a large enough effect; inconclusive = small, poorly fitted or top-dose-only effect, or another doubt; inactive = no such curve, though single readings can be large or run the other way.
Target: Histone acetyltransferase KAT2A (Homo sapiens) (UniProt Q92830)
Experiment: qHTS Assay for Inhibitors of GCN5L2
Conditions: GCN5L2 HAT assay, ThioGlo1 CoA-SH fluorescence; series mostly up to 58.9 µM; activity change, negative = inhibition: at the top concentration
% is scaled to controls: 0 for no effect and ±100 for the full control effect.

Amino acid sequences for entries named in this document (tags omitted).
UniProt Q92830, whole entry, looked up: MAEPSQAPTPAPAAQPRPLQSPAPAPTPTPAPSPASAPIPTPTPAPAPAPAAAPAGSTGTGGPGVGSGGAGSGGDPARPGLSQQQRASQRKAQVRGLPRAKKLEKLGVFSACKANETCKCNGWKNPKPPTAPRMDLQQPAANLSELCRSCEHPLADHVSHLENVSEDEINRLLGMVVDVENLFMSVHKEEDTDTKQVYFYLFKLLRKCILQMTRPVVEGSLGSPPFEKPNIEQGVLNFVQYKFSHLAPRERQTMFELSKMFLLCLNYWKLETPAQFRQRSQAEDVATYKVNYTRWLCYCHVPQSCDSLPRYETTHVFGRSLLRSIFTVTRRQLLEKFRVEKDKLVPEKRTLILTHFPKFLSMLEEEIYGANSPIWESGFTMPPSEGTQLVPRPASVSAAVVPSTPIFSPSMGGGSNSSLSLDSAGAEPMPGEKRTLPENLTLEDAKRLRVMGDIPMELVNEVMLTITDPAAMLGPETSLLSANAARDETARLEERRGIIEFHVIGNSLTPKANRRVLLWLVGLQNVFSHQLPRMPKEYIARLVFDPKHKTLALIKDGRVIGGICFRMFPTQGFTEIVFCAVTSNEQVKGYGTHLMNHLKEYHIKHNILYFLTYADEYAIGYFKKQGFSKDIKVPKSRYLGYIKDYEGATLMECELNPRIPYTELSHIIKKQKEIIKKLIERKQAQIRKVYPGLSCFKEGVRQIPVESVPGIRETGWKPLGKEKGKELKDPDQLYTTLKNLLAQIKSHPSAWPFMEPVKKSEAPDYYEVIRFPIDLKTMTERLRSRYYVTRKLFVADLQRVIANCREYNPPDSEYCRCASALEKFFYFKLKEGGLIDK

Question: `O=[As](O)(c1ccccc1)c1ccc(O)cc1` was tested. Which “activity change, negative = inhibition” value did it give?
Answer: inactive: 2.63%

Question: How did the “activity change, negative = inhibition” value turn out when `C(Cc1nn[nH]n1)Cc1nn[nH]n1` was run?
Answer: inactive: -1.45%

Question: How did the “activity change, negative = inhibition” value turn out when `Nc1ccc([As](=O)(O)c2ccc([N+](=O)[O-])cc2)cc1` was run?
Answer: inactive: -0.65%

Question: For `O=C(OC1CN2CCC1CC2)c1cccc(Cl)c1` (stereo not given), which “activity change, negative = inhibition” value is on record?
Answer: inactive: 1.46%

Question: How did the “activity change, negative = inhibition” value turn out when `O=C(NC1CCS(=O)(=O)C1)NP(=S)(Oc1ccccc1)Oc1ccccc1` (stereo not given) was run?
Answer: inactive: -14.7%

Question: For `CCNC(=S)/N=C(\N)N[N+](=O)[O-]`, which “activity change, negative = inhibition” value is on record?
Answer: inactive: -6.11%

Question: Which “activity change, negative = inhibition” value does the source give for `CCOC(=O)NC(Sc1ccccc1)C(Cl)(Cl)Cl` (stereo not given) here?
Answer: inactive: 0.516%

Question: Which “activity change, negative = inhibition” value does the source give for `Cc1ccc(NP(=O)(Oc2cccc(C)c2)Oc2cccc(C)c2)nc1` here?
Answer: inactive: -4.12%

Question: `c1ccc(-c2nn[nH]n2)c(-c2nn[nH]n2)c1` was tested. Which “activity change, negative = inhibition” value did it give?
Answer: inactive: -19.2%

Question: How did the “activity change, negative = inhibition” value turn out when `Cc1ccc(OP(=O)(Nc2ccccn2)Oc2ccc(C)cc2)cc1` was run?
Answer: inactive: -6.03%

Question: With `CC(=O)NC(SC(=S)N(CC(C)C)CC(C)C)C(Cl)(Cl)Cl` (stereo not given) as the molecule, how does the “activity change, negative = inhibition” value read?
Answer: inactive: -6.81%

Question: How did the “activity change, negative = inhibition” value turn out when `COC(=O)c1cc2c(s1)N=C(c1ccccc1)N(C)P2(=O)N1CCOCC1` (stereo not given) was run?
Answer: inactive: 18.8%

Question: `CCC(=O)N1C2C3N(C(=O)CC)C1C1N(C(=O)CC)C(C(N1C(=O)CC)N3C(=O)CC)N2C(=O)CC` was tested. Which “activity change, negative = inhibition” value did it give?
Answer: inactive: -6.33%

Question: With `O=C(OC1CN2CCC1CC2)c1ccccc1` (stereo not given) as the molecule, how does the Potency read?
Answer: inactive

Question: For `CN(C)C(=O)Oc1noc2ccccc12`, which “activity change, negative = inhibition” value is on record?
Answer: inactive: 0.759%

Question: Which “activity change, negative = inhibition” value does the source give for `CC(NC(=O)COC(=O)C(O)(c1ccccc1)c1ccccc1)c1ccccc1` (stereo not given) here?
Answer: inactive: -8.79%

Question: `CCOc1ccc(C2=NCC(CBr)S2)cc1` (stereo not given) was tested. Which “activity change, negative = inhibition” value did it give?
Answer: inactive: -0.559%

Question: Which “activity change, negative = inhibition” value does the source give for `O=P1(Nc2nc3ccc(Cl)cc3s2)COc2ccccc2O1` (stereo not given) here?
Answer: inactive: -0.52%

Question: With `CC(C)(C)C(=O)NC(Sc1ccccc1)C(Cl)(Cl)Cl` (stereo not given) as the molecule, how does the “activity change, negative = inhibition” value read?
Answer: inactive: -5.09%

Question: `CC(=O)c1ccc(N2CC2c2ccncc2)cc1` (stereo not given) was tested. Which “activity change, negative = inhibition” value did it give?
Answer: inactive: 19.6%

Question: For `C[C@H]1OP(=O)(Oc2ccccc2)C[C@@H]2O[C@@H]21` (stereo not given in full), which “activity change, negative = inhibition” value is on record?
Answer: inactive: -0.249%

Question: With `C[C@@H]1C=CCP(=O)(Oc2ccccc2)O1` (stereo not given in full) as the molecule, how does the “activity change, negative = inhibition” value read?
Answer: inactive: -2.82%

Question: For `Cc1ccccc1CN(C)C(=O)COC(=O)C(O)(c1ccccc1)c1ccccc1`, which “activity change, negative = inhibition” value is on record?
Answer: inactive: 1.38%

Question: With `CC(=O)Nc1ccc(Oc2c([N+](=O)[O-])cc([N+](=O)[O-])cc2[N+](=O)[O-])cc1` as the molecule, how does the “activity change, negative = inhibition” value read?
Answer: inactive: -18.2%

Question: For `CC(=O)Nc1ccc([As](=O)(O)O)c(O)c1`, which “activity change, negative = inhibition” value is on record?
Answer: inactive: -0.18%

Reference: PubChem BioAssay AID504327 (National Center for Advancing Translational Sciences (NCATS), 2011)
